Reference: US20100267774A1, “P38 MAP KINASE INHIBITORS” (CHROMA THERAPEUTICS LTD., priority 2007, published 2010)

Protein sequences, listed by entry. Tags and fused reporters are not part of them.
UniProt Q16539, whole entry: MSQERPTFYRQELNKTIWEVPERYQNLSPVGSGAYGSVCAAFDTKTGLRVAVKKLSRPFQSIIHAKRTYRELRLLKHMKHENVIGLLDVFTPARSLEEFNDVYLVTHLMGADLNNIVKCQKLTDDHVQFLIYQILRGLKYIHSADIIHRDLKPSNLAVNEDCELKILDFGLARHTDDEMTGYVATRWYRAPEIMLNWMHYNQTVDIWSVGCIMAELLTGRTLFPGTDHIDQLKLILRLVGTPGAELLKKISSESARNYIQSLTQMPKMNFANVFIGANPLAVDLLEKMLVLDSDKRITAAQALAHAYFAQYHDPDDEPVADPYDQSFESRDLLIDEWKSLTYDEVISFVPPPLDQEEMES

Biological target: T1, p38 MAP Kinase a (Homo sapiens, UniProt Q16539)
T1 construct: purchased Upstate (Dundee UK)
Assay: p38 MAP Kinase activity, radiometric filter-binding assay (Upstate)
Assay type: biochemical
Settings: IC50 range; read-out: Inhibitor activity versus p38 MAPKa
Method: The ability of compounds to inhibit p38 MAP a Kinase activity was measured in an assay performed by Upstate (Dundee UK). In a final reaction volume of 25 μL, p38 MAP Kinase a (5-10 mU) is incubated with 25 mM Tris pH 7.5, 0.002 mMEGTA, 0.33 mg/mL myelin basic protein, 10 mM MgAcetate and [g-33P-ATP] (specific activity approx. 500 cpm/pmol, concentration as required). The reaction is initiated by the addition of the MgATP mix. After incubation for 40 minutes at room temperature, the reaction is stopped by the addition of 5 μL of a 3% phosphoric acid solution. 10 μL of the reaction is then spotted onto a P30 filtermat and washed three times for 5 minutes in 75 mM phosphoric acid and once in methanol prior to drying and scintillation counting.
Duplicate data points are generated from a 1/3 log dilution series of a stock solution in DMSO. Nine dilutions steps are made from a top concentration of 10 μM, and a ‘no compound’ blank is included. The standard radiometric filter-binding assay is performed at an ATP concentration at, or close to, the Km. Data from scintillation counts are collected and subjected to free-fit analysis by Prism software. From the curve generated, the concentration giving 50% inhibition is determined and reported.

- IC50: < 100 nM
Compound: CC(C)(C)OC(=O)[C@@H](NCCc1cc(F)c(-n2c(N)c(C(=O)c3ccc(F)cc3F)ccc2=O)c(F)c1)c1ccccc1 [Example 35, tert-butyl (2S)-[(2-{4-[6-amino-5-(2,4-difluorobenzoyl)-2-oxopyridin-1(2H)-yl]-3,5-difluorophenyl}ethyl)amino](phenyl)acetate]
